Data from US5731309A, “Substituted heteroalkyleneamine neurokinin antagonists” (Zeneca Limited, priority 1994, dated 1998).

The chains behind the UniProt entries cited, without tags or fusion partners.
UniProt P21452, whole entry: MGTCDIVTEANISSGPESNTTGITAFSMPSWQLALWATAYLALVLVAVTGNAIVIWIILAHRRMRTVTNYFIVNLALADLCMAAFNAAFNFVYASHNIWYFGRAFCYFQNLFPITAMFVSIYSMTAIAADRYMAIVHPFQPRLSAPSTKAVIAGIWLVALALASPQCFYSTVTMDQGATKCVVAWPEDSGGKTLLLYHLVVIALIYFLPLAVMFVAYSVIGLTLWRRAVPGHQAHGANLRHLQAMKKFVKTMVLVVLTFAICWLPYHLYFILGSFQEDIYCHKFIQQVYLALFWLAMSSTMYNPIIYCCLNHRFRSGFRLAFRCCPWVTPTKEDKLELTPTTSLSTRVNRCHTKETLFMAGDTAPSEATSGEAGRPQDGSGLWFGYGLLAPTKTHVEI

Target: human NK2 receptor (Homo sapiens, UniProt P21452)
Assay: Neurokinin A (NKA) Receptor Binding Assay (Test B)
Settings: read-out: IC50 versus 3H-NKA binding; versus ^3 H-NKA binding to MELM; standard compound, initial use of assay
Text: Neurokinin A (NKA) Receptor Binding Assay (Test B)

- IC50: 30 nM
Structure (SMILES): CSCC[C@@H]1NC(=O)[C@H](CC(C)C)NC(=O)CNC(=O)[C@H](Cc2ccccc2)NC(=O)[C@H](Cc2c[nH]c3ccccc23)NC(=O)[C@H](CCC(N)=O)NC1=O
